Measured values reported in publication PMC8805583, “Discovery of Herbacetin as a Novel SGK1 Inhibitor to Alleviate Myocardial Hypertrophy” (Advanced Science, 2021).

Molecular target: T1, SGK1 (Homo sapiens, UniProt O00141)
T1 sequence (O00141 1-431): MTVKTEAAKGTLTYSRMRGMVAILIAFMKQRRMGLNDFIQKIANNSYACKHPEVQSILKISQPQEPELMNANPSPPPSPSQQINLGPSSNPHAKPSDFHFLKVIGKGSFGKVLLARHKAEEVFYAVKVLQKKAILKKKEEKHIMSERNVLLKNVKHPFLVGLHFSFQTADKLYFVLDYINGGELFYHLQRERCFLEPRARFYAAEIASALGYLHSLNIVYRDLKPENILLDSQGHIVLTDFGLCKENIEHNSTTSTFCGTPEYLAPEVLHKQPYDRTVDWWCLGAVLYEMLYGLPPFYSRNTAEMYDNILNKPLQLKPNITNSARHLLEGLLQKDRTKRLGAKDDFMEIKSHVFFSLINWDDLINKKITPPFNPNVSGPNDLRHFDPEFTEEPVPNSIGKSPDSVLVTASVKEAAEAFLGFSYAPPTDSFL
Test: Mass spectrometry-based SGK1 kinase inhibitory assay (LC/MS of phosphorylated […])
Format: biochemical
Excerpt: To identify active compounds with SGK1 inhibitory activity from Ext.R, a novel mass‐spectrometry based kinase inhibitory assay was developed. A polypeptide sequence ([…], m/z: 618.6) derived from glycogen Synthase Kinase‐3(GSK3), a known substrate of SGK1, was optimized and synthesized. We subsequently used liquid chromatography coupled with mass spectrometry (LC/MS) to detect and quantify its phosphorylation level ([…](p)FAE, m/z:658.7) (Figure 3A).^[ [26] ^] Basal level SGK1 was supplemented to each well, and the peak area of phosphorylation was measured in the presence or absence of testing compounds. […]
Synthesis of […] was prepared by Shanghai Sangong Biotech. […] Reactions were terminated by the addition of methyl alcohol with 0.1% trifluoroacetic acid (TFA), and supernatants were analyzed by the Agilent 1100 LC system (Agilent Technologies, USA) and a 1946D single quadrupole mass spectrometer. […] A minimum of three replicates of each sample were analyzed and averaged together. Inhibition of SGK1 was calculated by the following equation (1) Inhibitionrate%=PC−PS/PC P C and P S represented the peak area of product peptide in the control group without test compounds and the tested sample group with various test compounds, respectively.

Rhodiosin showed an IC50 of 6.62 µM.
